# AlphaSeq binding of Ab-14 light chain variants to a spike HR2 peptide

Source: Li et al. 2023 (doi:10.1038/s41467-023-39022-2), MIT Lincoln Laboratory and A-Alpha Bio; data file from the FLAb repository.

Antigen: PDVDLGDISGINAS, a 14-residue peptide of the SARS-CoV-2 spike HR2 region.

The variants keep the heavy chain, the linker and the frameworks of Ab-14 (scFv order VH, three GGGGS repeats, VL).
VH: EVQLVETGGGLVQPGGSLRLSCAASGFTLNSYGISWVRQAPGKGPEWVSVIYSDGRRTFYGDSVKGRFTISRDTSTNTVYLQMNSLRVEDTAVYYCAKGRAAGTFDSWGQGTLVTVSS
VL: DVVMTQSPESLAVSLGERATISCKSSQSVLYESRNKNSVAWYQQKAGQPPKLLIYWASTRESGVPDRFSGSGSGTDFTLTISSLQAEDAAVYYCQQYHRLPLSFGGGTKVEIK

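The starting antibody came from a phage panning campaign against this peptide. This is the validation round: designs drawn from the data on random variants, tested in the same kind of assay. Group labels follow the data file (Ctrl: baseline library sampled from a position-specific scoring matrix, with some repeated check sequences; En: ensemble of fine-tuned language models; GP: Gaussian process model; HC: hill climbing; Gen: genetic algorithm; Gibbs: Gibbs sampling; a sequence that several methods proposed may carry one label only). Affinity was read by AlphaSeq, a pooled yeast mating assay with surface-displayed partners. The frequency of each diploid, read from paired DNA barcodes, reflects how well the two displayed proteins bind. Each replicate has its own calibration line, from reference interactions of the BCL2 family. Each pool was mated in six replicate cultures.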

The parent's light chain CDRs are KSSQSVLYESRNKNSVA, WASTRES, QQYHRLPLS; each variant's own CDRs replace them letter for letter. Kd is apparent (estimated from mating counts) and averaged on the log scale over replicates with a signal. Smaller is tighter. A pair that was not seen in any replicate is written "no signal"; this usually means weak binding, but a binder can also be missed. Values of this round are not directly comparable with the first-round values of the same sequences. Background: pairings of all light chain designs with three empty control strains gave a value in 4% of cases (median 430 nM, 5th percentile 38 nM). Values in that range, when seen in few replicates, are hard to tell from nonspecific mating. The control count says in how many pairings with the empty strains this scFv gave a signal. The parent sequence was in this pool as ten entries: three were never detected, three once, and four in most replicates, with averages from 2.2 nM to 240 nM. In the paper, a design with two or fewer of six values counts as a poor binder.

CDR-L1,CDR-L2,CDR-L3,group,apparent Kd,replicates with signal,signal with controls
KLSQSTLYESRNKNAVA,NASQRES,QQYHRLPLS,GP_Gen,2.0 nM,6/6,0/18
KFEQSVLYESRNKNSVA,EASTRES,QQYHRLPLS,GP_Gen,440 pM,6/6,4/18
TISQSAQMESHNKNSVA,DLNTRGS,QQYDRLPLS,En_HC,6.3 nM,6/6,1/18
KIGMTLNTLMHKQNNVA,DLVTREN,QQYHRLPLS,En_Gen,1.9 nM,6/6,0/18
HSSPSVKYESRNKNSVA,NASTRES,QQYHRLPLS,GP_HC,1.1 nM,6/6,1/18
KVSQSVLYESGTKNSVA,NASDRES,QQYHRLPLS,GP_HC,2.4 nM,6/6,1/18
KLDTSWLYGKRNKNSVA,QASLRES,QQYHRLPLS,GP_Gibbs,9.3 nM,6/6,1/18
KLVNFMNRGTHHTSNIA,DAQNRLD,QQYYRLPLA,En_Gen,1.9 nM,6/6,1/18
KLSQEVMMGDRNKNSVA,KASQRLS,QQYHRLPLS,GP_Gibbs,3.3 nM,6/6,0/18
KSSQATLYESRNKNSVA,WASTRES,QQYHRLPLS,Ctrl,no signal,0/6,0/18
KLSQSELYESRQKNSVA,NASTRMS,QQYHRLPLS,GP_Gen,3.7 nM,6/6,2/18
KISQMTRVGMTHSNSIA,EEVTRAK,QQYHRLPLF,En_Gen,18 nM,6/6,0/18
MMSMGYLGGMRAKNNVA,QESTRED,QQYHRLPLI,En_HC,39 nM,3/6,1/18
HVNHEQLDYKNYENNIA,HASQRLY,QQYSHLPLS,En_Gibbs,1.8 nM,6/6,0/18
KLSGQMLYEERNSNNVA,HASHRES,QQYHRLPLS,GP_Gibbs,730 pM,6/6,2/18
KISGSVMMLQRNKNSVA,EANTRES,QQYHRLPLS,GP_Gibbs,1.2 nM,6/6,2/18
KLSQSDLYESRNKNSVA,NASLRES,QQYHRLPLS,GP_Gen,1.0 nM,6/6,0/18
KQSDSDLQESRNKNSVA,DASTRES,QQYHRLPLS,GP_HC,2.1 nM,6/6,1/18
KLPQSQLYESRNKNSVA,HASTRLS,QQYHRLPLS,GP_Gen,2.0 nM,6/6,1/18
KLQGSVGYEERNKNSVA,GASQRES,QQYHRLPLS,GP_Gibbs,1.2 nM,6/6,1/18
KFEQSWLYESRNKNSVA,NASTRMS,QQYHRLPLS,GP_Gen,250 pM,6/6,0/18
KSSYSYLGEKRNKNSVA,EASTRES,QQYHRLPLS,GP_HC,2.8 nM,6/6,1/18
LSSQSDLYEERNNNSVA,AASTRES,YQYHRLPLS,Ctrl,5.9 µM,1/6,2/18
KQMQSGPYEDRNFNSVA,HASTRIS,QQYHRLPLS,GP_Gibbs,15 nM,6/6,1/18
KSSQSVLYESLNKNSVA,DASTRES,QPYHRLPLF,Ctrl,8.2 nM,6/6,0/18
KLEQSQLYESRNKNNVA,NASQRES,QQYHRLPLS,GP_Gen,640 pM,6/6,2/18
KVRQSTLYESRNKNSVA,DASTRES,QQYHRLPLS,GP_HC,590 pM,6/6,1/18
QSSQSHLYESRNKNSVA,GASTRES,QQYHRLPLS,GP_HC,680 pM,6/6,1/18
KSSASYLYESRNKNSVA,AASTRES,QQYHRLPLS,GP_HC,960 pM,6/6,3/18
KLSQSVEYESRNKNSVA,WASTRES,QQYQRLPLS,Ctrl,17 nM,6/6,0/18
KSSMSFLYESRNKNSVA,DASTRES,QQYHRLPLS,GP_HC,630 pM,6/6,2/18
KQSQAFLPESRNKNSVA,DANTRES,QQYHRLPLS,GP_HC,1.2 nM,6/6,3/18
HMQNESQQDSRQWNNVA,ETTVVET,QQYATLPLT,En_Gibbs,56 nM,5/6,2/18
KSSQSVEYERRNKNSVA,DADTRES,QQYHRLPLS,Ctrl,30 nM,6/6,0/18
KLSQSMLYESRNSNSVA,NASTRES,QQYHRLPLS,GP_Gen,210 pM,6/6,0/18
KLSQLVEMESRWWNSVA,SASQRNE,QQYHRLPLS,GP_Gibbs,76 nM,4/6,0/18
KLEGSNLYESRNGNSVA,NASTRES,QQYHRLPLS,GP_Gibbs,590 pM,6/6,4/18
KMSQSWLEEDRNKNSVA,WASTRES,QQYSRLPLS,Ctrl,11 nM,6/6,1/18
SMAYFQVFGNQQEKAIA,EVATREQ,QQYFRLPLT,En_Gibbs,19 nM,4/6,0/18
KLNLKMRVNGERCYNIA,DSSTRLQ,QDYHRLPLI,En_Gibbs,20 nM,6/6,1/18
MISDLTMYGSRNKNSVA,DLSNRGS,QQYHRLPLS,En_HC,2.1 nM,6/6,0/18
KSSQSNLYESRNKNSVA,WASTRES,NQYWRLPLS,Ctrl,no signal,0/6,0/18
HSSPSVLYESRNGNSVA,NASTREL,QQYHRLPLS,GP_HC,1.6 nM,6/6,0/18
KMENSNGYESRNKNSVA,QASTRMS,QQYHRLPLS,GP_Gibbs,1.2 nM,6/6,1/18
KLSQSCLYESRNKNNVA,NASTRES,QQYHRLPLS,GP_Gen,570 pM,6/6,1/18

The first 5 entries again:

{"CDR-L1": "KLSQSTLYESRNKNAVA", "CDR-L2": "NASQRES", "CDR-L3": "QQYHRLPLS", "group": "GP_Gen", "apparent Kd": "2.0 nM", "replicates with signal": "6/6", "signal with controls": "0/18"}
{"CDR-L1": "KFEQSVLYESRNKNSVA", "CDR-L2": "EASTRES", "CDR-L3": "QQYHRLPLS", "group": "GP_Gen", "apparent Kd": "440 pM", "replicates with signal": "6/6", "signal with controls": "4/18"}
{"CDR-L1": "TISQSAQMESHNKNSVA", "CDR-L2": "DLNTRGS", "CDR-L3": "QQYDRLPLS", "group": "En_HC", "apparent Kd": "6.3 nM", "replicates with signal": "6/6", "signal with controls": "1/18"}
{"CDR-L1": "KIGMTLNTLMHKQNNVA", "CDR-L2": "DLVTREN", "CDR-L3": "QQYHRLPLS", "group": "En_Gen", "apparent Kd": "1.9 nM", "replicates with signal": "6/6", "signal with controls": "0/18"}
{"CDR-L1": "HSSPSVKYESRNKNSVA", "CDR-L2": "NASTRES", "CDR-L3": "QQYHRLPLS", "group": "GP_HC", "apparent Kd": "1.1 nM", "replicates with signal": "6/6", "signal with controls": "1/18"}